Test results taken from ChEMBL document CHEMBL5126614, “Discovery of MK-1462: GLP-1 and Glucagon Receptor Dual Agonist for the Treatment of Obesity and Diabetes” (ACS Med Chem Lett, 2022).
pEC50: −log10 of the molar value.

The chains behind the UniProt entries cited, without tags or fusion partners.
UniProt P43220, whole entry: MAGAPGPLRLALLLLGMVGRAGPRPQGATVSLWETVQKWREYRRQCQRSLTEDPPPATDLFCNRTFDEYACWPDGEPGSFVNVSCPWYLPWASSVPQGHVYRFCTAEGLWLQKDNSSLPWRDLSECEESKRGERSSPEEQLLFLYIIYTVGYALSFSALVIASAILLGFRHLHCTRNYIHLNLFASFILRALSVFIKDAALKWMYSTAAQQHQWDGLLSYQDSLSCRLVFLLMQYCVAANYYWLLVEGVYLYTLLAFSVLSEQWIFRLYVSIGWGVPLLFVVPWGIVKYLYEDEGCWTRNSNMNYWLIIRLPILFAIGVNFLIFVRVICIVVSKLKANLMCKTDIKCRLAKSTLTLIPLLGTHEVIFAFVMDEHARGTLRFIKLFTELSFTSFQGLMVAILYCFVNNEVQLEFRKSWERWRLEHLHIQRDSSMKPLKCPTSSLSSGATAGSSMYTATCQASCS

Biological target: Glucagon-like peptide 1 receptor (Homo sapiens, UniProt P43220)
Assay: Agonist activity at human GLP1R expressed in frozen cells assessed as increase in cAMP production measured after 1 hr by HitHunter luminescence assay
Assay type: functional, cell-based

For GLUCAGON, the pEC50 was 10.24.
